From patent US10730889B2, “Amido spirocyclic amide and sulfonamide derivatives” (Forma TM, LLC, priority 2012, dated 2020)

By UniProt entry, the sequences of proteins in these tests, tags left out. Where a name states a change or a piece, a line headed by the entry shows the natural chain unless it says otherwise.
UniProt P43490: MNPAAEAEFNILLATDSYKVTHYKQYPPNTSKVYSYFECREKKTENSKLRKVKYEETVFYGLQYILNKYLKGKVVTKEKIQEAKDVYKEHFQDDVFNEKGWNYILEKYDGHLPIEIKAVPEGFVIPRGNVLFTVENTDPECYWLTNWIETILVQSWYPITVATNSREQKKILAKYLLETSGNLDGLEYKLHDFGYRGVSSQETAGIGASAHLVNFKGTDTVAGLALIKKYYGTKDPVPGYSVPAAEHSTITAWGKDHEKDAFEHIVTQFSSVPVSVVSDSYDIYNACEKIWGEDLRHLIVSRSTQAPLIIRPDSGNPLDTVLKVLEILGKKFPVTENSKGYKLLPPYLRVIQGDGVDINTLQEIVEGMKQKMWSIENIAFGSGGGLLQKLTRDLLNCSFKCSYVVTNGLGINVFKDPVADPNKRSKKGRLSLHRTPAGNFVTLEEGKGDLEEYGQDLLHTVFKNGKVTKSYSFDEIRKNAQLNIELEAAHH

The compounds below were run against NAMPT (Homo sapiens (Human), UniProt P43490) (assay: Biochemical inhibition assay (NAMPT enzymatic reaction, NMN quantified by mass spectrometry)).
In the case of `CC(=O)Nc1cccc(C(=O)N2CCC3(CC2)CC3CNC(=O)c2cc3ccncc3o2)n1` (stereo not drawn) [Example 135, N-[[6-(6-acetamidopyridine-2-carbonyl)-6-azaspiro[2.5]octan-2-yl]methyl]furo[2,3-c]pyridine-2-carboxamide], the IC50 is reported as 50.9 nM. In the case of `CCc1noc(C)c1C(=O)N1CCC2(CC1)CC2CNC(=O)c1cc2ccncc2o1` (stereo not drawn) [Example 136, N-[[6-(3-ethyl-5-methyl-isoxazole-4-carbonyl)-6-azaspiro[2.5]octan-2-yl)methyl]furo[2,3-c]pyridine-2-carboxamide], the IC50 is reported as 104 nM. `CCn1nc(C)cc1C(=O)N1CCC2(CC1)CC2CNC(=O)c1cc2ccncc2o1` (stereo not drawn) [Example 137, N-[[6-(2-ethyl-5-methyl-pyrazole-3-carbonyl)-6-azaspiro[2.5]octan-2-yl]methyl]furo[2,3-c]pyridine-2-carboxamide] was tested, and the IC50 was 252 nM. With `CCn1cc(C(=O)N2CCC3(CC2)CC3CNC(=O)c2cc3ccncc3o2)c(C)n1` (stereo not drawn) [Example 138, N-[[6-(1-ethyl-3-methyl-pyrazole-4-carbonyl)-6-azaspiro[2.5]octan-2-yl)methyl]furo[2,3-c]pyridine-2-carboxamide] the IC50 was 94.1 nM. `Cc1nocc1C(=O)N1CCC2(CC1)CC2CNC(=O)c1cc2ccncc2o1` (stereo not drawn) [Example 139, N-[[6-(3-methylisoxazole-4-carbonyl)-6-azaspiro[2.5]octan-2-yl]methyl]furo[2,3-c]pyridine-2-carboxamide] was tested, and the IC50 was 163 nM. With `Cc1ccn(CC(C)C(=O)N2CCC3(CC2)CC3CNC(=O)c2cc3ccncc3o2)n1` (stereo not drawn) [Example 140, N-[[6-[2-methyl-3-(3-methylpyrazol-1-yl)propanoyl]-6-azaspiro[2.5]octan-2-yl]methyl]furo[2,3-c]pyridine-2-carboxamide] the IC50 was 780 nM. In the case of `O=C(NCC1CC12CCN(C(=O)c1cn[nH]c1)CC2)c1cc2ccncc2o1` (stereo not drawn) [Example 141, N-[[6-(1H-pyrazole-4-carbonyl)-6-azaspiro[2.5]octan-2-yl]methyl]furo[2,3-c]pyridine-2-carboxamide], the IC50 is reported as 222 nM. In the case of `CS(=O)(=O)N1CCC(CC(=O)N2CCC3(CC2)CC3CNC(=O)c2cc3ccncc3o2)CC1` (stereo not drawn) [Example 142, N-[[6-[2-(1-methylsulfonyl-4-piperidyl)acetyl]-6-azaspiro[2.5]octan-2-yl]methyl]furo[2,3-c]pyridine-2-carboxamide], the IC50 is reported as 116 nM. In the case of `CN1CCOC(C(=O)N2CCC3(CC2)CC3CNC(=O)c2cc3ccncc3o2)C1` (stereo not drawn) [Example 143, N-[[6-(4-methylmorpholine-2-carbonyl)-6-azaspiro[2.5]octan-2-yl]methyl]furo[2,3-c]pyridine-2-carboxamide], the IC50 is reported as 1220 nM. `CC(C)C(=O)N1CC(C(=O)N2CCC3(CC2)CC3CNC(=O)c2cc3ccncc3o2)C1` (stereo not drawn) [Example 144, N-[[6-[1-(2-methylpropanoyl)azetidine-3-carbonyl]-6-azaspiro[2.5]octan-2-yl]methyl]furo[2,3-c]pyridine-2-carboxamide] gave an IC50 of 116 nM. Work on `CC(=O)N1CC(C(=O)N2CCC3(CC2)CC3CNC(=O)c2cc3ccncc3o2)C1` (stereo not drawn) [Example 145, N-[[6-(1-acetylazetidine-3-carbonyl)-6-azaspiro[2.5]octan-2-yl]methyl]furo[2,3-c]pyridine-2-carboxamide] yielded an IC50 of 494 nM. `O=C(NCC1CC12CCN(C(=O)C1CCN(c3cccnn3)C1)CC2)c1cc2ccncc2o1` (stereo not drawn) [Example 146, N-[[6-(1-pyridazin-3-ylpyrrolidine-3-carbonyl)-6-azaspiro[2.5]octan-2-yl)methyl]furo[2,3-c]pyridine-2-carboxamide] showed an IC50 of 80.1 nM. `O=C(NCC1CC12CCN(C(=O)CC1CCN(c3ncccn3)CC1)CC2)c1cc2ccncc2o1` (stereo not drawn) [Example 147, N-[[6-[2-(1-pyrimidin-2-yl-4-piperidyl)acetyl]-6-azaspiro[2.5]octan-2-yl]methyl]furo[2,3-c]pyridine-2-carboxamide] gave an IC50 of 55.3 nM. `CC(C)N1CCC(CC(=O)N2CCC3(CC2)CC3CNC(=O)c2cc3ccncc3o2)CC1` (stereo not drawn) [Example 148, N-[[6-[2-(1-isopropyl-4-piperidyl)acetyl]-6-azaspiro[2.5]octan-2-yl]methyl]furo[2,3-c]pyridine-2-carboxamide] gave an IC50 of 288 nM. `CC1(CC(=O)N2CCC3(CC2)CC3CNC(=O)c2cc3cnccc3[nH]2)COC1` (stereo not drawn) [Example 150, N-([6-[2-(3-methyloxetan-3-yl)acetyl]-6-azaspiro[2.5]octan-1-yl]methyl)-1H-pyrrolo[3,2-c]pyridine-2-carboxamide] gave an IC50 of 310 nM. For `N#Cc1ccccc1CC(=O)N1CCC2(CC1)CC2CNC(=O)c1cc2ccncc2o1` (stereo not drawn) [Example 152, N-[[6-[2-(2-cyanophenyl)acetyl]-6-azaspiro[2.5]octan-2-yl]methyl]furo[2,3-c]pyridine-2-carboxamide], the IC50 was 60.1 nM. For `COCCC(=O)N1CCC2(CC1)CC2CNC(=O)c1cc2ccncc2o1` (stereo not drawn) [Example 153, N-[[6-(3-methoxypropanoyl)-6-azaspiro[2.5]octan-2-yl]methyl]furo[2,3-c]pyridine-2-carboxamide], the IC50 was 686 nM. In the case of `O=C(NCC1CC12CCN(C(=O)Cc1ccc(S(=O)(=O)C(F)(F)F)cc1)CC2)c1cc2ccncc2o1` (stereo not drawn) [Example 154, N-[[6-[2-[4-(trifluoromethylsulfonyl)phenyl]acetyl]-6-azaspiro[2.5]octan-2-yl]methyl]furo[2,3-c]pyridine-2-carboxamide], the IC50 is reported as 208 nM. With `CC(=O)N(C)CCC(=O)N1CCC2(CC1)CC2CNC(=O)c1cc2ccncc2o1` (stereo not drawn) [Example 155, N-[[6-[3-[acetyl(methyl]amino]propanoyl]-6-azaspiro[2.5]octan-2-yl]methyl]furo[2,3-c]pyridine-2-carboxamide] the IC50 was 261 nM. `N#Cc1ccc(NC(=O)N2CCC3(CC2)CC3CNC(=O)c2cc3ccncc3o2)cc1` (stereo not drawn) [Example 157, N-[[6-[(4-cyanophenyl)carbamoyl]-6-azaspiro[2.5]octan-2-yl)methyl]furo[2,3-c]pyridine-2-carboxamide] gave an IC50 of 75.2 nM. `Cc1cccc(CNC(=O)N2CCC3(CC2)CC3CNC(=O)c2cc3ccncc3o2)c1` (stereo not drawn) [Example 158, N-[[6-(m-tolylmethylcarbamoyl)-6-azaspiro[2.5]octan-2-yl]methyl]furo[2,3-c]pyridine-2-carboxamide] gave an IC50 of 410 nM. In the case of `Cc1ccc(NC(=O)N2CCC3(CC2)CC3CNC(=O)c2cc3ccncc3o2)cc1` (stereo not drawn) [Example 159, N-[[6-(p-tolylcarbamoyl)-6-azaspiro[2.5]octan-2-yl]methyl]furo[2,3-c]pyridine-2-carboxamide], the IC50 is reported as 33.2 nM. Compound `O=C(NCC1CC12CCN(C(=O)NCc1ccccc1)CC2)c1cc2ccncc2o1` (stereo not drawn) [Example 160] has an IC50 of 951 nM. With `O=C(NCC1CC12CCN(C(=O)NCc1ccccc1F)CC2)c1cc2ccncc2o1` (stereo not drawn) [Example 161, N-[[6-[(2-fluorophenyl)methylcarbamoyl]-6-azaspiro[2.5]octan-2-yl]methyl]furo[2,3-c]pyridine-2-carboxamide] the IC50 was 123 nM. `Cc1ccc(CNC(=O)N2CCC3(CC2)CC3CNC(=O)c2cc3ccncc3o2)cc1` (stereo not drawn) [Example 162, N-[[6-(p-tolylmethylcarbamoyl)-6-azaspiro[2.5]octan-2-yl]methyl]furo[2,3-c]pyridine-2-carboxamide] showed an IC50 of 441 nM. `O=C(NCC1CC12CCN(C(=O)NCc1ccc(F)cc1)CC2)c1cc2ccncc2o1` (stereo not drawn) [Example 163, N-[[6-[(4-fluorophenyl)methylcarbamoyl]-6-azaspiro[2.5]octan-2-yl]methyl]furo[2,3-c]pyridine-2-carboxamide] showed an IC50 of 559 nM. With `COc1ccccc1CNC(=O)N1CCC2(CC1)CC2CNC(=O)c1cc2ccncc2o1` (stereo not drawn) [Example 164, N-[[6-((2-methoxyphenyl)methylcarbamoyl]-6-azaspiro[2.5]octan-2-yl]methyl]furo[2,3-c]pyridine-2-carboxamide] the IC50 was 118 nM. Compound `COc1cccc(CNC(=O)N2CCC3(CC2)CC3CNC(=O)c2cc3ccncc3o2)c1` (stereo not drawn) [Example 165, N-[[6-[(3-methoxyphenyl)methylcarbamoyl]-6-azaspiro[2.5]octan-2-yl]methyl]furo[2,3-c]pyridine-2-carboxamide] has an IC50 of 309 nM. Work on `O=C(NCC1CC12CCN(C(=O)NCc1cccc(F)c1)CC2)c1cc2ccncc2o1` (stereo not drawn) [Example 166, N-[[6-[(3-fluorophenyl)methylcarbamoyl]-6-azaspiro[2.5]octan-2-yl]methyl]furo[2,3-c]pyridine-2-carboxamide] yielded an IC50 of 406 nM. For `COc1ccc(CNC(=O)N2CCC3(CC2)CC3CNC(=O)c2cc3ccncc3o2)cc1` (stereo not drawn) [Example 167, N-[[6-[(4-methoxyphenyl)methylcarbamoyl]-6-azaspiro[2.5]octan-2-yl]methyl]furo[2,3-c]pyridine-2-carboxamide], the IC50 was 314 nM. Work on `O=C(NCC1CC12CCN(C(=O)NCc1ccc(Cl)c(Cl)c1)CC2)c1cc2ccncc2o1` (stereo not drawn) [Example 168, N-[[6-[(3,4-dichlorophenyl)methylcarbamoyl]-6-azaspiro[2.5]octan-2-yl]methyl]furo[2,3-c]pyridine-2-carboxamide] yielded an IC50 of 113 nM. `O=C(NCC1CC12CCN(C(=O)NCc1ccc(Cl)cc1)CC2)c1cc2ccncc2o1` (stereo not drawn) [Example 170, N-[[6-[(4-chlorophenyl)methylcarbamoyl]-6-azaspiro[2.5]octan-2-yl]methyl]furo[2,3-c]pyridine-2-carboxamide] gave an IC50 of 161 nM. `O=C(NCC1CC12CCN(C(=O)NCc1ccccc1Cl)CC2)c1cc2ccncc2o1` (stereo not drawn) [Example 171, N-[[6-[(2-chlorophenyl)methylcarbamoyl]-6-azaspiro[2.5]octan-2-yl]methyl]furo[2,3-c]pyridine-2-carboxamide] showed an IC50 of 60.4 nM. `CCNC(=O)N1CCC2(CC1)CC2CNC(=O)c1cc2ccncc2o1` (stereo not drawn) [Example 172, N-[[6-(ethylcarbamoyl)-6-azaspiro[2.5]octan-2-yl)methyl]furo[2,3-c]pyridine-2-carboxamide] was tested, and the IC50 was 422 nM. In the case of `O=C(NCC1CC12CCN(C(=O)NCc1ccc(Cl)cc1Cl)CC2)c1cc2ccncc2o1` (stereo not drawn) [Example 173, N-[(6-[(2,4-dichlorophenyl)methylcarbamoyl]-6-azaspiro[2.5]octan-2-yl]methyl]furo[2,3-c]pyridine-2-carboxamide], the IC50 is reported as 146 nM. For `CC1(O)CC(CC(=O)N2CCC3(CC2)CC3CNC(=O)c2cc3ccncc3o2)C1` (stereo not drawn) [Example 174, N-([6-[2-(3-hydroxy-3methylcyclobutyl)acetyl]-6-azaspiro[2.5]octan-1-yl]methyl)furo[2,3-c]pyridine-2-carboxamide], the IC50 was 238 nM.
